Screening results: PubChem, Broad Institute
Most compounds without a hit are left out; they make up all but 1.7% or so of the library.
CDK5 p35 inh = inhibitors of human CDK5/p35 kinase; Q00535+Q15078; Recombinant CDK5/p35, ADP-Glo luminescence, 60 min; inhibition, % at 10 µM; 330,000 tested, 0.01% active; AID 488839;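 active = highest replicate inhibition of at least 50% and at least 75% of replicates reaching 50%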;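 also: plate controls were DMSO neutral control for no effect and GW8510 at 10 µM for full effect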
dFosB act-1 = enhances mouse delta FosB homodimer DNA binding | AID 493131 | P13346 | 340,000 tested, 0.99% active | purified delta FosB, TAMRA-CDK5 oligo fluorescence polarization; percent of positive-control signal above neutral wells | activation, % at 25 µM;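 active = mean activation above about 17%, with every replicate also reaching it, limit read from the data, passing the limit was not always enough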
CAL PDZ FP-1 = human CAL PDZ-peptide interaction inhibition; 330,000 tested, 0.02% active; purified CAL PDZ, TMR-peptide fluorescence polarization, 1 h; AID 504414; inhibition, % at 20 µM;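 active = highest replicate inhibition of at least 40%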;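 also: plate controls were DMSO neutral control wells for no effect and unlabeled competitor peptide control wells for full effect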
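Material: tagged CAL PDZ protein CerCALP, purified; buffer or medium: sodium phosphate/NaCl buffer pH 7.4 with TCEP, IgG, Thesit; also added: fluorescent TMR peptide probe; schedule: 1 h incubation at room temperature before polarization reading; technique: fluorescence polarization from S- and P-plane intensities, G-factor corrected; control set: unlabelled peptide and DMSO controls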
Dyrk1A ADPGlo = inhibitors of rat Dyrk1A kinase | Q63470 | ADP-Glo luminescence, NFATc1 peptide | inhibition, % at 12.5 µM | 310,000 tested, 0.43% active; in the data active = inhibition above about 50%;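 also: plate controls were vehicle with enzyme for no effect and no enzyme for full effect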
Yeast UUG start = alters start codon recognition fidelity in yeast. S. cerevisiae UUG-firefly luciferase reporter, luminescence/redox ratio. 350,000 tested, 0.13% active. activity score, % at 18.7 µM. AID 602363;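 active means replicate mean at a twofold rise or more, about +100% in these data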;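 further: firefly luciferase made from a UUG start codon reports start codon fidelity; reporter light over untreated wells divided by growth signal over untreated wells; some hits fall short of that in this replicate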
CAL PDZ FP-2 = CAL PDZ (human) peptide binding inhibition. Q9HD26. purified CAL PDZ, TMR-peptide fluorescence polarization, 1 h. 300,000 tested, 0.92% active. inhibition, % at 24.9 µM;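 active = mean inhibition of at least 30% with at least half of replicates also reaching 30%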;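 also: 0% = DMSO neutral control and 100% = excess unlabeled competitor peptide PRC23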
dFosB act-2 = enhances mouse delta FosB homodimer binding to DNA; shares compounds with dFosB act-1; purified delta FosB, TAMRA-CDK5 oligo fluorescence polarization; normalised: neutral wells 0, positive control 100; activation, % at 24.9 µM; 2,400 tested, under 10 active; AID 588690;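 active = highest replicate activation at or above 34% and every replicate reaching that threshold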;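 also: higher polarization means more probe DNA bound by delta FosB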
Starred values were filed as active, the others as inactive; / = not tested or not shown.

Codes: A = CDK5 p35 inh; B = dFosB act-1; C = CAL PDZ FP-1; D = Dyrk1A ADPGlo; E = Yeast UUG start; F = CAL PDZ FP-2; G = dFosB act-2
> COc1cc2ccccc2cc1C(=O)N(CCN(C)C)c1nc2ccc(Br)cc2s1
  A = -1	B = 44*	C = -1	D = 1	E = 1	F = /	G = 5

> COc1cc2ccccc2cc1C(=O)N(CCN(C)C)c1nc2c(F)cc(F)cc2s1
  A = 1	B = 35*	C = -3	D = 5	E = -2	F = 4	G = 6

> CN(C)CCCN(C(=O)CCc1ccccc1)c1nc2ccc(F)cc2s1
  A = 1	B = -19	C = -2	D = 4	E = /	F = -5	G = /

> COc1ccccc1-c1ccc2c(c1)[C@@H]1[C@@H](CCN1C(=O)c1ccc3c(c1)OCO3)[C@H](CO)N2
  A = /	B = /	C = /	D = /	E = -18	F = /	G = /

> Cc1ccc(S(=O)(=O)N(C)C[C@H]2OCCCC[C@H](C)Oc3ccc(NC(=O)Cc4ccccc4)cc3C(=O)N([C@@H](C)CO)C[C@H]2C)cc1
  A = /	B = /	C = /	D = /	E = -6	F = /	G = /

> O=C(C[C@H]1CC[C@H]2[C@@H](COC[C@H](O)CN2S(=O)(=O)c2ccc(F)cc2)O1)NCC1CCCCC1
  A = /	B = /	C = /	D = /	E = 7	F = /	G = /

> CC(=O)Nc1ccc(NC(=O)c2ccc(NC(=O)c3ccccc3)cc2)cc1
  A = -1	B = 27*	C = 0	D = 8	E = -6	F = -6	G = 4

> CC(=O)Nc1ccc(NC(=O)c2ccc(N(Cc3ccccc3C)S(C)(=O)=O)cc2)cc1
  A = 0	B = 20*	C = -1	D = 3	E = /	F = -3	G = 5

> CC(=O)Nc1ccc(/C=N/NC(=O)CNC(=O)c2ccccc2)cc1
  A = 1	B = 21*	C = -1	D = 5	E = /	F = 0	G = 2

> COc1ccccc1NS(=O)(=O)c1cccc(C(=O)N/N=C/c2ccc(OCC(=O)O)cc2)c1
  A = -4	B = -1	C = -1	D = 4	E = /	F = /	G = /

Codes: A = CDK5 p35 inh; B = dFosB act-1; C = CAL PDZ FP-1; D = Dyrk1A ADPGlo; E = Yeast UUG start; F = CAL PDZ FP-2; G = dFosB act-2
> COc1ccccc1NS(=O)(=O)c1cccc(C(=O)N/N=C/c2ccc(NC(C)=O)cc2)c1
  A = 2	B = 29*	C = 0	D = 2	E = /	F = 1	G = -1

> C[C@@H]1CN([C@@H](C)CO)C(=O)c2cc(C#CC3CC3)cnc2O[C@@H]1CN(C)C(=O)Nc1ccc(F)cc1
  A = /	B = /	C = /	D = /	E = 23	F = /	G = /

> C[C@H](CO)N1C[C@H](C)[C@@H](CN(C)C(=O)Nc2ccc(F)cc2)Oc2ccc(NS(=O)(=O)c3cccs3)cc2CC1=O
  A = /	B = /	C = /	D = /	E = 10	F = /	G = /

> Cc1ccc(S(=O)(=O)Nc2ccc3c(c2)C(=O)N([C@H](C)CO)C[C@H](C)[C@H](CN(C)C(=O)Nc2c(C)noc2C)O3)cc1
  A = /	B = /	C = /	D = /	E = -9	F = /	G = /

> CO[C@@H]1CN(C)C(=O)c2cc(NC(C)=O)ccc2OC[C@H](C)N(C(=O)C2CCCCC2)C[C@@H]1C
  A = /	B = /	C = /	D = /	E = 1	F = /	G = /

> CCCNC(=O)N1[C@@H]2CN(C(=O)C3CCOCC3)c3ccccc3[C@@H]2[C@@H]1CO
  A = /	B = /	C = /	D = /	E = -1	F = /	G = /

> COc1ccc(NS(=O)(=O)c2ccc(O)c(NC(=O)c3ccc(S(=O)(=O)N4CCCC4)cc3)c2)cc1
  A = 0	B = 20*	C = -3	D = 2	E = -7	F = -1	G = 0

> COc1ccc(-c2cc(-c3cccs3)c(C#N)c(SCC(=O)NCc3ccco3)n2)cc1
  A = 0	B = 47*	C = /	D = -3	E = -18	F = 4	G = 0

> CN1C(=O)c2cc(NC(=O)c3ccno3)ccc2OC[C@H]2O[C@@H](CC(=O)Nc3ccccc3)CC[C@@H]21
  A = /	B = /	C = /	D = /	E = 10	F = /	G = /

> COc1cccc(-c2nnn(CC(=O)Nc3cc(OC)c(NC(=O)c4ccco4)cc3OC)n2)c1
  A = -1	B = 17*	C = 0	D = -2	E = -16	F = -2	G = 0

Codes: A = CDK5 p35 inh; B = dFosB act-1; C = CAL PDZ FP-1; D = Dyrk1A ADPGlo; E = Yeast UUG start; F = CAL PDZ FP-2; G = dFosB act-2
> O=C(Cn1nnc(-c2ccc(Cl)cc2)n1)NCc1ccco1
  A = 0	B = 6	C = -2	D = -76	E = /	F = -2	G = /

> O=C(Cn1nnc(-c2ccccc2F)n1)Nc1ccc2c(c1)OCCO2
  A = -1	B = 14	C = -1	D = 1	E = -20	F = -6	G = /

> COc1ccc(-c2nnn(CC(=O)NCc3ccc4c(c3)OCO4)n2)cc1OC
  A = -4	B = 29*	C = 0	D = -5	E = /	F = /	G = 5

> COc1ccc(C(=O)Nc2ccc(-c3nnn(CC(=O)NCc4ccco4)n3)cc2)cc1
  A = -1	B = 46*	C = -1	D = 7	E = -21	F = -1	G = 3

> COc1ccc(C(=O)Nc2cc(OC)c(NC(=O)c3ccco3)cc2OC)cc1
  A = 1	B = -18	C = -1	D = /	E = /	F = -1	G = /

> Cc1ccc(NC(=O)Cn2nnc(-c3ccc4c(c3)OCO4)n2)cc1F
  A = 1	B = 23*	C = -2	D = -5	E = -14	F = -5	G = 2

> CCOc1ccc(-c2nnn(CC(=O)NCc3ccc4c(c3)OCO4)n2)cc1
  A = 0	B = 7	C = -1	D = -2	E = -23	F = 1	G = /

> COc1ccccc1C(=O)Nc1ccc2c(c1)C(=O)N(C)C[C@H](OC)[C@H](C)CN(C(C)=O)[C@@H](C)CO2
  A = /	B = /	C = /	D = /	E = -1	F = /	G = /

> Cc1noc(C)c1S(=O)(=O)N(C)C[C@@H]1Oc2ccc(NC(=O)CCCN(C)C)cc2C(=O)N([C@@H](C)CO)C[C@@H]1C
  A = /	B = /	C = /	D = /	E = -3	F = /	G = /

> CCOc1ccc(-c2nnn(CC(=O)Nc3cccc(OC)c3)n2)cc1OCC
  A = 0	B = 19*	C = -4	D = 4	E = -15	F = -4	G = 0

Next section; it opens with the three that closed the last part.
Codes: A = CDK5 p35 inh; B = dFosB act-1; C = CAL PDZ FP-1; D = Dyrk1A ADPGlo; E = Yeast UUG start; F = CAL PDZ FP-2; G = dFosB act-2
> COc1ccccc1C(=O)Nc1ccc2c(c1)C(=O)N(C)C[C@H](OC)[C@H](C)CN(C(C)=O)[C@@H](C)CO2
  A = /	B = /	C = /	D = /	E = -1	F = /	G = /

> Cc1noc(C)c1S(=O)(=O)N(C)C[C@@H]1Oc2ccc(NC(=O)CCCN(C)C)cc2C(=O)N([C@@H](C)CO)C[C@@H]1C
  A = /	B = /	C = /	D = /	E = -3	F = /	G = /

> CCOc1ccc(-c2nnn(CC(=O)Nc3cccc(OC)c3)n2)cc1OCC
  A = 0	B = 19*	C = -4	D = 4	E = -15	F = -4	G = 0

> CCOc1ccc(-c2nnn(CC(=O)NCc3ccc(F)cc3)n2)cc1OCC
  A = 1	B = 41*	C = -2	D = -3	E = -3	F = -2	G = -5

> C[C@@H]1CN([C@H](C)CO)C(=O)Cc2cc(NS(C)(=O)=O)ccc2O[C@@H]1CN(C)C(=O)Nc1ccccc1
  A = /	B = /	C = /	D = /	E = 10	F = /	G = /

> CCC(=O)N1CC[C@H]2[C@H](CO)Nc3ccc(-c4ccc(C(=O)N(C)C)cc4)cc3[C@H]21
  A = /	B = /	C = /	D = /	E = 4	F = /	G = /

> Cc1noc(C)c1S(=O)(=O)N(C)C[C@@H]1OCCCC[C@@H](C)Oc2ccc(NS(=O)(=O)c3cccs3)cc2C(=O)N([C@H](C)CO)C[C@H]1C
  A = /	B = /	C = /	D = /	E = 21	F = /	G = /

> Cc1cc(C)c2nc3nc(C)c(C)cc3c(N)c2c1
  A = 0	B = 26*	C = -4	D = -1	E = /	F = -6	G = 2

> CCCSc1nc(C)c2cc(C)cc(C)c2n1
  A = -1	B = -8	C = 0	D = -7	E = /	F = -1	G = /

> Nc1nc(Cl)cc(Sc2ccc(F)cc2)n1
  A = 0	B = 6	C = 0	D = -5	E = /	F = -3	G = /

> Cc1ccc(Sc2cc(Cl)nc(N)n2)cc1
  A = -1	B = 58*	C = -1	D = 5	E = -15	F = -9	G = 3

> C[C@@H]1CN([C@H](C)CO)C(=O)c2cc(NC(=O)Nc3ccc(F)cc3)ccc2O[C@@H](C)CCCCO[C@H]1CN(C)Cc1ccc(C(F)(F)F)cc1
  A = /	B = /	C = /	D = /	E = 1	F = /	G = /

> Cc1[nH]c2ccccc2c1C(=O)CN1C(=O)C(=O)N(C2CCCC2)C1=O
  A = 0	B = 47*	C = 0	D = 1	E = -10	F = 1	G = 6

Codes: A = CDK5 p35 inh; B = dFosB act-1; C = CAL PDZ FP-1; D = Dyrk1A ADPGlo; E = Yeast UUG start; F = CAL PDZ FP-2; G = dFosB act-2
> Cc1cc(C(=O)CN2C(=O)C(=O)N(C3CCCC3)C2=O)c(C)n1CCc1ccccc1
  A = 2	B = -1	C = -2	D = -4	E = 0	F = -3	G = /

> COc1ccccc1C#Cc1ccc2c(c1)O[C@H](CN(C)Cc1ccncc1)[C@@H](C)CN([C@@H](C)CO)S2(=O)=O
  A = /	B = /	C = /	D = /	E = 20	F = /	G = /

> Cc1cc(C)c2oc(C(=O)NCCc3ccc(S(N)(=O)=O)cc3)cc(=O)c2c1
  A = 2	B = 41*	C = -2	D = 5	E = 12	F = -2	G = -2

> Cc1ccc2c(=O)cc(C(=O)NCCc3ccc(S(N)(=O)=O)cc3)oc2c1
  A = -1	B = -3	C = -3	D = 6	E = -7	F = 0	G = /
